Laboratory results as given in patent publication US7855294B2, “Cycloalkanopyridine derivative” (Banyu Pharmaceutical Co., Ltd., priority 2004, dated 2010).

Amino acid sequences for entries named in this document (tags omitted). A change or cut given only in a name is not applied to a line headed by its entry.
UniProt P41146: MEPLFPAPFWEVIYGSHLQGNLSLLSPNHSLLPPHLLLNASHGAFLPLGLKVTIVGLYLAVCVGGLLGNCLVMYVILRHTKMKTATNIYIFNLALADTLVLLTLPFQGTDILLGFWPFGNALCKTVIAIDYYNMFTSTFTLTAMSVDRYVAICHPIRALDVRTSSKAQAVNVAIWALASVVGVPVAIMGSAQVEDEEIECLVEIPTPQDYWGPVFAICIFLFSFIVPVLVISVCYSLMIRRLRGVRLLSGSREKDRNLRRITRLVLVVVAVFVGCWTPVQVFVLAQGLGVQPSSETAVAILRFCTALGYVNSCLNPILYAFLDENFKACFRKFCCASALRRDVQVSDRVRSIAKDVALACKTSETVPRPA

Legend:
nociceptin receptor ORL1 [1] = molecular target: T1, nociceptin receptor ORL1 (Homo sapiens, UniProt P41146); test: Nociceptin receptor binding inhibition assay ([125I]Tyr14-Nociceptin, CHO/ORL1 membrane fractions, SPA beads); set-up: expressed in transfected cells; membrane fractions
Experimental: A cDNA that codes for a human nociceptin receptor gene was cloned into an expression vector pCR3 (by Invitrogen) to prepare pCR3/ORL1. Next, pCR3/ORL1 was transfected in CHO cells using a transfectam (by Nippongene) to obtain a stable expression strain (CHO/ORL1 cells) having resistance against 1 mg/ml G418. Membrane fractions were prepared from this stable expression strain to carry out a receptor binding assay. 11 μg of the membrane fraction, 50 pM [^125I]Tyr^14-Nociceptin (by Amersham Pharmacia), 1 mg of wheat germ agglutinin SPA beads (PVT based, by Amersham Pharmacia) and each test compound were suspended in an NC buffer (50 mM Hepes, 10 mM sodium chloride, 1 mM magnesium chloride, 2.5 mM calcium chloride, 0.1% BSA, 0.025% bacitracin, pH 7.4) and incubated at 37° C. for 60 minutes, and then the radioactivity of the culture was determined.

nociceptin receptor ORL1 [2] = molecular target: T1, nociceptin receptor ORL1; test: Antagonism against nociceptin-elicited G protein activation (GTPγ[35S] binding, CHO/ORL1 membrane); type: biochemical; set-up: expressed in transfected cells; membrane preparation
Experimental: CHO cells which stably expressed a nociceptin receptor ORL1 were used to investigate the action of each test compound against nociceptin-elicited G protein activation. A membrane prepared from the CHO/ORL1 cells, 50 nM nociceptin, 200 pM GTPγ[^35S] (by NEN), 1.5 mg of wheat germ agglutinin SPA beads (by Amersham Pharmacia) and each test compound were mixed in a GDP buffer (20 mM Hepes, 100 mM sodium chloride, 10 mM magnesium chloride, 1 mM EDTA, 5 μM GDP, pH 7.4) and incubated at 25° C. for 150 minutes, and then the radioactivity of the culture was determined.

For `Cl.O[C@H]1C[C@H](CN2CC[C@H](c3ccc(F)cc3Cl)[C@@H](O)C2)Cc2cccnc21` [Example 33, (6R,8S)-6-[(3R,4R)-4-(2-chloro-4-fluorophenyl)-3-hydroxypiperidin-1-ylmethyl]-5,6,7,8-tetrahydroquinolin-8-ol monohydrochloride], the IC50 (nociceptin receptor ORL1 [1]) was 9 nM and the IC50 (nociceptin receptor ORL1 [2]) was 5.9 nM.
